The source of these data is publication PMC12754760, “Size-Controlled Mesoporous Silica Nanoparticles via Template Nanoarchitectonics from a Deferoxamine Derivative for Enhanced Blood–Brain Barrier Permeability and Neuroprotective Chelation Therapy” (ACS Applied Materials & Interfaces, 2025).

Data set [1] is described as follows: Octanol-water log P, shake flask method. It counts as physicochemical. The note with it: RP-HPLC-MS.
On the set-up of data set [2]: method as in Ul-Haq et al. The note with it: ref Ul-Haq et al.; cited from earlier work.

In the case of Deferoxamine mesylate [DFO], the “Log P (experimentally obtained)” value in data set [1] is listed as “–0.02”. Also, the LD50 in data set [2] is on record as 250 mg·kg^–1.
